From publication PMC5093939, “Teicoplanin-based antimicrobial therapy in Staphylococcus aureus bone and joint infection: tolerance, efficacy and experience with subcutaneous administration” (BMC Infectious Diseases, 2016) come the findings set out here.

A short description of this data set: Trough teicoplanin plasmatic levels (Cmin) in the first 14 days of treatment. The note with it: 5.7 mg/kg/day after loading dose of 5 injections 12 h apart. The text has this:
Patients diagnosed with staphylococcal BJI were identified by cross-referencing the prospective maintained databases of the regional referral center for BJI and the bacteriology laboratory, which list exhaustively all strains isolated from osteoarticular samples since 2001. Patients with diabetic foot- and decubitus ulcer-related BJI were excluded, as they require a specific management. If patients presented more than one osteoarticular infected site, they were considered as independent events for cohort description and outcome analysis, but pooled for tolerance and pharmacologic evaluation. For each patient, data were collected from medical records, nursing charts and biological software in an anonymous standardized case report form.
A Cmin >15 mg/L was taken as an acceptable therapeutic target. Patients with a Cmin >25 mg/L were considered as overexposure.
For intravenous (IV) administration, each dose was diluted in 100 mL of isotonic saline solution and administrated over a 30-min period. For subcutaneous (SC) injections, each dose was diluted in 50 mL of isotonic saline solution and delivered by a nurse during a 30- to 60-min gravity infusion using a butterfly disposable needle. […]

On to teicoplanin, for which the “Patients whose first trough level (Cmin) reached the therapeutic target (15 mg/L)” value stood at 26%.
